## Ab-14 light chain CDR variants: yeast mating affinities

Values reported by Li et al. 2023, doi:10.1038/s41467-023-39022-2 (FLAb copy).

All variants were tested on one target, the spike HR2 peptide PDVDLGDISGINAS (SARS-CoV-2).

Parent scFv Ab-14: VH joined to VL by three GGGGS repeats. Changes lie in the light chain CDRs alone.
VH: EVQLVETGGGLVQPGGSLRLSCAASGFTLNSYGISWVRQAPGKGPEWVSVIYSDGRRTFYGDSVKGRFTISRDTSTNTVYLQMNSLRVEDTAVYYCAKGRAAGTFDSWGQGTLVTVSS
VL: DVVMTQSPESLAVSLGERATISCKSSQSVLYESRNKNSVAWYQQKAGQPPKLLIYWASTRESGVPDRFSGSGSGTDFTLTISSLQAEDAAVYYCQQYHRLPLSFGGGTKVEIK

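The parent was found by panning a naive human phage display library on the peptide. These sequences belong to a second round, designed from the earlier measurements on random variants of the parent. Several design methods are mixed in this list. AlphaSeq pools MATa yeast showing the antibodies with MATalpha yeast showing the peptide. After mating in shaken culture at 30 °C for 16 h, diploids were selected and their barcode pairs sequenced. The ratio of observed to expected reads was calibrated, replicate by replicate, on BCL2-family standards whose Kd was known from biolayer interferometry. There are six technical replicates.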

Variants are written as CDR1, CDR2 and CDR3 of the light chain (limits as in the source). Parent: KSSQSVLYESRNKNSVA, WASTRES, QQYHRLPLS.
Values are apparent Kd, the geometric mean of the replicates that gave a signal; lower means stronger binding.
An entry "no signal" has no value in the source: the pair was not observed among the diploids in any replicate. This suggests poor binding but is not conclusive.
A sequence measured in both rounds can read differently, since the two assays cover different ranges.
Background: pairings of all light chain designs with three empty control strains gave a value in 4% of cases (median 430 nM, 5th percentile 38 nM). Values in that range, when seen in few replicates, are hard to tell from nonspecific mating. The control count says in how many pairings with the empty strains this scFv gave a signal.
The parent sequence was in this pool as ten entries: three were never detected, three once, and four in most replicates, with averages from 2.2 nM to 240 nM.
In the paper, a design with two or fewer of six values counts as a poor binder.
A sequence that the file lists under several names has all its replicates pooled.

CDR-L1,CDR-L2,CDR-L3,Kd (apparent),detected,empty controls
KVSQSVLYEQRNKNSVA,QASTRES,QQYHRLPLS,1.5 nM,6 of 6,1 of 18
KMQASQGYESRNKNSVA,QASTRES,QQYHRLPLS,1.1 nM,6 of 6,0 of 18
TLMHHQDRYDNWKKSIA,EASIRES,QQYQRLPLA,4.7 nM,6 of 6,0 of 18
KSSQSVLYESRNKNSVA,WASTRSS,QQYHRLPLS,33 nM,6 of 6,0 of 18
KIQGYLNKESKNKNSVA,EMVNRES,QQYDRLPLS,2.4 nM,6 of 6,0 of 18
HISMSMNWLTRNKNSIA,EESTRED,QQYFRLPLS,1.7 nM,6 of 6,0 of 18
KQSQSVLYESRDKNSVA,EASTRES,QQYQGLLLS,9.0 nM,6 of 6,0 of 18
KASGSDLYESTNKNSVA,DASTRES,QQYHRLPLS,720 pM,6 of 6,0 of 18
KVSQSVLYESRMKNAVA,NASTRES,QQYHRLPLS,530 pM,6 of 6,2 of 18
MMSQVTGIGTRHRNNVA,QTSTREP,QQYDRLPLM,2.5 nM,6 of 6,0 of 18
KNSQSLLYESRNKNSVA,WASTREF,QQYHRLPLS,16 nM,1 of 6,0 of 18
KLSQSVPYESRNKNSVA,NASQREQ,QQYHRLPLS,660 pM,6 of 6,1 of 18
KISQVTEYESRNKNNVA,DLSTRGS,QDYHRLPLS,7.5 nM,6 of 6,1 of 18
KSSQSVLYESRNKNSVA,GGSTREI,QSYHRLPLS,13 nM,6 of 6,0 of 18
KLRSVTGTEKVKGDNVA,EMETRER,QQYNRLPLS,1.1 nM,6 of 6,0 of 18
KFSQSVLYCSRTKNSVA,NASTRES,QQYHRIPLS,5.9 nM,6 of 6,0 of 18
NISIEDVSEHNFANNVA,STDCRCS,QQYFHLPLM,58 nM,6 of 6,0 of 18
KLSQGVLYESRNKNSVA,NASTRES,QQYHRLPLS,360 pM,6 of 6,0 of 18
KLDQSTLYESRNKNSVA,WASTRLS,QQYHRLPLS,1.9 nM,6 of 6,1 of 18
KSSQSVLFEDRNKNSVA,DASTRES,QQYHRLPLS,1.5 nM,6 of 6,2 of 18
MLEIIPNGYMKMRSNVA,DGSLVRM,QQYARLPLM,no signal,0 of 6,0 of 18
KLRQSQNYESRNKNSVA,NASTRES,QIYHRLPLS,2.1 nM,6 of 6,1 of 18
KSMQSVDGESRNKNSVA,SAQTREE,QQYHRLPLS,1.1 nM,6 of 6,0 of 18
TISGVMQQMTHSKNNVA,EVSMRLD,QQYFRLPLE,35 nM,6 of 6,0 of 18
KSSGSVLYESMNKNSVA,EASTRES,QQYHRLPLS,2.3 nM,6 of 6,0 of 18
MISQIYNMGQFAINSVA,QASERSN,QQYDRLPLM,35 nM,6 of 6,0 of 18
KSSQSVDFESRNKNSVA,DASTREQ,QQYHRLPLS,910 pM,6 of 6,0 of 18
KMSQSVLGEQRAQNSVA,EASTRES,QQYHRLPLS,2.8 nM,6 of 6,0 of 18
KYSTSELEESRNKNSVA,WASTREE,QQYHRLPLS,140 nM,5 of 6,1 of 18
KLSQSVLYESRNKMSVA,NASQRES,QQYHRLPLS,1.2 nM,6 of 6,0 of 18
MFSDEIYAYENQANSIA,EKTELVF,QDYHRLPFA,3.7 nM,6 of 6,0 of 18
KLMGSVEQLSRNKNSVA,HASLREV,QAYHRLPLS,5.0 nM,6 of 6,1 of 18
KLSQSVLYQSRMKNSVA,NASTRES,QQYHRLPLS,690 pM,6 of 6,1 of 18
MISQLYNMGQFAINSVA,QASQRNA,QQYDRLPLI,16 nM,6 of 6,1 of 18
KISMLSENQLKNRNSVA,ELVTRLN,QQYNRLPLS,7.6 nM,6 of 6,0 of 18
IVSQLMLWGLHAKNSIA,EAETRPN,QQYDRLPLM,no signal,0 of 6,0 of 18
KLGNMTGIESHNKNSLA,DANRRES,QQYHRLPLS,2.5 nM,6 of 6,0 of 18
KSAYSELYESANKNSVA,SANTRES,QQYHRLPLS,3.0 nM,6 of 6,0 of 18
KLSQSFPYESRNKNSVA,NASTRES,QQYHRLPLS,1.2 nM,6 of 6,0 of 18
KVSQSGLYEQRNKNSVA,NASTRES,QQYHRLPLS,2.2 nM,6 of 6,0 of 18
KWSQSVLYESRNKNSVA,WASTRES,QQYHRLPLS,56 nM,3 of 6,4 of 18
KSSQSLQYESANKNSVA,GASTRES,QQYHRLTLS,220 nM,1 of 6,0 of 18
SFDLTKSGMENQQYSIA,ERNELMT,QDYHRLPLA,36 nM,6 of 6,0 of 18
KIKISVLYESRNKNSVA,AAITREV,QQYHRLPES,1.3 nM,1 of 6,0 of 18
KIYQLGKGSQKINNNIA,QTSIREL,QSYNRLPLS,50 nM,6 of 6,0 of 18
KQQFSGMMGSRNKNSVA,KASTRES,QQYHRLPLS,82 nM,5 of 6,0 of 18
MLNDAYQGDIANNQNVA,SADVLTH,QQYNKLPLS,4.4 nM,6 of 6,1 of 18
KSSQSVLYESRNKNSVA,WASTRES,QQYHMLPLS,63 nM,5 of 6,0 of 18
KMEQGVLYESRNKGSVA,HASVRES,QQYHRLPLS,570 pM,6 of 6,1 of 18
HLGLATMLEEIVRNSVA,NNSTRED,QQYDRLPLS,8.7 nM,6 of 6,2 of 18
TISQMTSLFSMSINNVA,EVSTREQ,QQYDRLPLM,4.0 nM,6 of 6,0 of 18
KLSQSVLYESRNKNSVA,DASTREE,QQYHRLPLS,190 pM,6 of 6,0 of 18
FSSQSVLYESENKNSVA,WASERES,QQYQRLPLS,220 nM,3 of 6,2 of 18
KMQGSVMMLSRNDNSVA,QASTREE,QQYHRLPLS,1.4 nM,6 of 6,0 of 18
QFQFEDVQYTVNEQAIA,EENQRMQ,QQYFRLPLI,48 nM,6 of 6,1 of 18
KLPQGVLYESRNKNSVA,GASCRES,QQYHRLPLS,590 pM,6 of 6,1 of 18
LSSISYLYESLNKNSVA,EASTRES,QQYHRLPLS,2.8 nM,6 of 6,0 of 18
KLSQSVLYESRNKNSVA,GASTREE,QQYHRLPLS,1.2 nM,12 of 12,2 of 36
KFSQSVEYESRNKNSVA,WASTRES,QQYHELPIS,no signal,0 of 6,0 of 18

7 of these entries, quoted again:

| CDR-L1 | CDR-L2 | CDR-L3 | Kd (apparent) | detected | empty controls |
|---|---|---|---|---|---|
| TISGVMQQMTHSKNNVA | EVSMRLD | QQYFRLPLE | 35 nM | 6 of 6 | 0 of 18 |
| TLMHHQDRYDNWKKSIA | EASIRES | QQYQRLPLA | 4.7 nM | 6 of 6 | 0 of 18 |
| KVSQSVLYESRMKNAVA | NASTRES | QQYHRLPLS | 530 pM | 6 of 6 | 2 of 18 |
| KLDQSTLYESRNKNSVA | WASTRLS | QQYHRLPLS | 1.9 nM | 6 of 6 | 1 of 18 |
| KSSQSLQYESANKNSVA | GASTRES | QQYHRLTLS | 220 nM | 1 of 6 | 0 of 18 |
| KISMLSENQLKNRNSVA | ELVTRLN | QQYNRLPLS | 7.6 nM | 6 of 6 | 0 of 18 |
| TISQMTSLFSMSINNVA | EVSTREQ | QQYDRLPLM | 4.0 nM | 6 of 6 | 0 of 18 |